We go through 1 molecule from patent US12029739B2, “SHP2 inhibitor and use thereof” (KANAPH THERAPEUTICS INC., priority 2021, dated 2024).

Sequences of proteins named here, by UniProt entry; tags and fusion partners are left off.
UniProt Q06124, whole entry: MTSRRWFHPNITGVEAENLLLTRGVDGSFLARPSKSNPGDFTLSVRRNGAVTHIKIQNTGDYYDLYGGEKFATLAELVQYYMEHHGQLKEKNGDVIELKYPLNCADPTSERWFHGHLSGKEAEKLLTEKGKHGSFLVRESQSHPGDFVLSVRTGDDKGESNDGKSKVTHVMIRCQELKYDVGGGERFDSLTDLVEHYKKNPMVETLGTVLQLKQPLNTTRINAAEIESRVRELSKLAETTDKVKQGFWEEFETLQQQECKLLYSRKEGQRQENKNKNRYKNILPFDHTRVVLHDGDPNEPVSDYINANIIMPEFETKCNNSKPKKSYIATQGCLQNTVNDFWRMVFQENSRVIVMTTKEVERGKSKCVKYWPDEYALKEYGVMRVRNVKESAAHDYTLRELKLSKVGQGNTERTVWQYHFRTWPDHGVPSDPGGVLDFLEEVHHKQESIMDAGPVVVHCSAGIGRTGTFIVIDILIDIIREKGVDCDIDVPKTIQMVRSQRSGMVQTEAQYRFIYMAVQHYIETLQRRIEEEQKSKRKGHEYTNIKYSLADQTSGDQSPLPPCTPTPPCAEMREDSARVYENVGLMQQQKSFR

The assay addresses T1, SHP2 (full length) (Homo sapiens, UniProt Q06124).
T1 construct: SHP2 (full length, diluted to 100 pM final concentration in reaction buffer, BPS bioscience, US); purchased BPS bioscience, US
Briefly: Phosphatase assay (PTPase assay) with DiFMUP substrate. It counts as biochemical. The note with it: IC50 (PTPase aS say, nM), SHP2 activated with SHP2 activating peptide; DiFMUP 80 μM, 2 hours; fluorescence.

Broadly, the IC50 is the concentration that inhibits the measured activity by half. Low values mean inhibition by little substance, high ones a need for much substance.

Molecule `Cc1nc2ccc(Sc3cnc(N4CCC(C)(CN)CC4)cn3)c(Cl)c2c(=O)n1Cc1cccc(S(=O)(=O)F)c1` [Example 21, 3-((6-((5-(4-(aminomethyl)-4-methylpiperidin-1-yl)pyrazin-2-yl)thio)-5-chloro-2methyl-4-oxoquinazolin-3(4H)-yl)methyl)benzenesulfonyl fluoride] gave a 50% inhibitory concentration (IC50) of 3 to 100 nM.
